Test results from ChEMBL document CHEMBL2321648, “Structure-based discovery of pyrazolobenzothiazine derivatives as inhibitors of hepatitis C virus replication” (J Med Chem, 2013).

What was measured:
Hepatitis C virus [1] = assay: Inhibition of N-terminal His-tagged recombinant Hepatitis C virus subtype 1b NS5B Cdelta21 RNA dependent RNA polymerase expressed in Escherichia coli by liquid scintillation counting analysis
Outline: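 Dose-response with 8–12 concentrations, in duplicate in two independent experiments. IC50 obtained by nonlinear regression, means ± SD.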

Hepatitis C virus [2] = assay: Binding affinity to Hepatitis C virus (isolate Con1) NS5B […] by surface plasmon resonance analysis; design: species or system Hepacivirus hominis
[3] = Selectivity index, ratio of CC50 for human HuH5.2 cells to EC50 for Hepatitis C virus subtype 1b; assay type: toxicity; conditions: read-out: Ratio CC50/EC50
Outline: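 Ratio of CC50 (MTS, 72 h) to EC50 (luciferase replicon read-out), both measured in parallel in Huh 5-2 replicon cells.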

SMILES	IC50 (Hepatitis C virus [1])	Kd (Hepatitis C virus [2])	selectivity ratio [3]
CC(C)CCn1c(=O)c(C2=NS(=O)(=O)c3ccccc3N2)c(O)c2ccccc21	0.085 µM		
CS(=O)(=O)Nc1ccc(NC(=O)c2nn(-c3ccccc3)c3c2NS(=O)(=O)c2ccccc2-3)cc1		53 µM	
CS(=O)(=O)Nc1ccc(NC(=O)c2nn(-c3ccccc3[N+](=O)[O-])c3c2NS(=O)(=O)c2ccccc2-3)cc1		35 µM	
COC(=O)c1nn(-c2cccc(F)c2)c2c1N(C)S(=O)(=O)c1ccccc1-2		> 300 µM	2
CN1c2c(C(=O)Nc3ccc(NS(C)(=O)=O)cc3)nn(-c3ccc(F)cc3)c2-c2ccccc2S1(=O)=O	3.9 µM		
